Test: activity coefficient (dimensionless); of the first substance listed, at infinite dilution; xn = mol fraction of the nth substance listed
Details: 101 kPa, Liquid, Chromatography, x1 = 0

CCCCOCCCC [dibutyl ether] + CCCC[n+]1cccc(C)c1.O=S(=O)([O-])C(F)(F)F
Details	activity coefficient
308.15 K	21.1
318.15 K	20.2
328.15 K	19.4
338.15 K	18.5
348.15 K	17.8
358.15 K	17.1

Source: the NIST ThermoML archive (doi:10.1021/je1000582)
